Where two headings read alike, the source gives them in different places.
Key:
Bcl-2 [1] = target: T1, Bcl-2 (Homo sapiens, UniProt P10415); conditions: biochemical assays; read-out: Ki, recombinant Bcl-2; cited from earlier work
Bcl-2 [2] = target: T1, Bcl-2; experiment: fluorescence-polarization (FP) binding assay, Bcl-2; conditions: means ± SD (n≥3)
Excerpt: BM-1197 ( Fig 1 ), was synthesized in a similar manner as described for BM-1074 [16]. We evaluated the binding affinities of BM-1197 to Bcl-2, Bcl-xL and Mcl-1 proteins using our optimized fluorescence-polarization (FP) binding assays.
Data are expressed as means ± SD (n≥3).

Protein sequences, listed by entry. Tags and fused reporters are not part of them.
UniProt P10415, whole entry: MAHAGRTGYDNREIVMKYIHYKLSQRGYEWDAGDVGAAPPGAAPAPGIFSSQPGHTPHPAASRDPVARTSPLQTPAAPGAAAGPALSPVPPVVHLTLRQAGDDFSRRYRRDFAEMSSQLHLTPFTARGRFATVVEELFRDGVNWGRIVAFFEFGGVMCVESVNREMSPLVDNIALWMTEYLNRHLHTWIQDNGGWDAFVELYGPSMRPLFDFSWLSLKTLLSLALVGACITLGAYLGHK

IC50 (Bcl-2 [2]): 1.9 ± 0.3 nM | Ki (Bcl-2 [2]): < 0.5 nM
SMILES: CC1(C)CCC(c2ccc(Cl)cc2)=C(CN2CCN(c3ccc(C(=O)NS(=O)(=O)c4ccc(N[C@H](CCN5CCOCC5)CSc5ccccc5)c(S(=O)(=O)C(F)(F)F)c4)cc3)CC2)C1 [ABT-263, reference compound]
Ki (Bcl-2 [1]): < 1 nM

From PMC4047118, “BM-1197: A Novel and Specific Bcl-2/Bcl-xL Inhibitor Inducing Complete and Long-Lasting Tumor Regression In Vivo” (PLoS ONE, 2014)
